## Binding of CDR-mutated scFvs to a peptide of the spike HR2 region

Target peptide (SARS-CoV-2 spike, HR2 region): PDVDLGDISGINAS

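Phage display of a naive human antibody library on the peptide gave the parent. Variants in AAYL52 differ from the parent at up to three CDR positions; double and triple changes were sampled at random. Affinity was read by AlphaSeq, a pooled yeast mating assay with surface-displayed partners. The frequency of each diploid, read from paired DNA barcodes, reflects how well the two displayed proteins bind. Each replicate has its own calibration line, from reference interactions of the BCL2 family. There are three technical replicates.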

Parent: Ab-95, a human scFv built as VH, a 15-residue (Gly4Ser)3 linker, VL. Only the CDRs of the light chain vary.
VH: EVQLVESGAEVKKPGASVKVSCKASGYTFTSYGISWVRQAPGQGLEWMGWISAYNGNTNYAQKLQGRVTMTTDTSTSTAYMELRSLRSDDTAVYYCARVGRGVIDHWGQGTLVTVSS
VL: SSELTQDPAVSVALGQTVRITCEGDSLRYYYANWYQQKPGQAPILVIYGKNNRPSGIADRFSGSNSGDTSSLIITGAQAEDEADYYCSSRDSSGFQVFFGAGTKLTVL

Variants are written as CDR1, CDR2 and CDR3 of the light chain (limits as in the source). Parent: EGDSLRYYYAN, GKNNRPS, SSRDSSGFQVF.
Values are apparent Kd, the geometric mean of the replicates that gave a signal; lower means stronger binding.
Where no diploid with the target was found in any replicate, the entry reads "no signal": below detection, most likely a poor binder, though not proof of it.
As a blank, each scFv also met three strains without target: over library AAYL52, 28% of these pairings were detected, typically at 8.2 µM and seldom below 800 nM.

CDR-L1,CDR-L2,CDR-L3,apparent Kd,replicates with signal
EGDRLRYYYAN,GKNNRPS,SARDSSGMQVF,10 µM,3 of 3
WGDSLRYYYAN,GKNNRPS,SSRDSSGIQIF,950 nM,3 of 3
EGDSLRYAYAN,GKHTRPS,SSRDSSGFQVF,25 nM,3 of 3
EGDSLRYYYAN,GKNNRPC,SSRDSGGRQVF,1.0 µM,3 of 3
EGDSLRYYRAN,GPNNRPS,SSRDSSGFQVF,37 nM,3 of 3
ESDSLRTYYAN,GNNNRPS,SSRDSSGFQVF,270 nM,3 of 3
EGDSLRYYYAN,GKWDRPS,SSRDSSMFQVF,no signal,0 of 3
EGDSLRNYYAN,GKNYRPS,SSRDSSCFQVF,4.2 µM,1 of 3
LGDSLRYYYAN,GKNNMPS,SSRDSWGFQVF,130 µM,3 of 3
EGDSLRYYYAN,GKNIRPS,SARDSSGFYVF,no signal,0 of 3
EGDSLRYYYAN,GKNNRPS,GSRDSSGKYVF,23 µM,3 of 3
EWDSLRYYYNN,PKNNRPS,SSRDSSGFQVF,6.4 µM,1 of 3
EGDSFRDYYAQ,GKNNRPS,SSRDSSGFQVF,410 nM,3 of 3
TGDILRYYYAN,GKNNRPS,SSRDKSGFQVF,2.3 µM,2 of 3
EGDSLRYWYAN,GKNNRNS,KSRDSSGFQVF,2.6 µM,3 of 3
EGDSLRYYYAN,GKNNRPS,SSRRSSGFRFF,260 nM,3 of 3
EGDSLRYYYFN,GFNNRPS,SSRDSDGFQVF,56 µM,1 of 3
EGDSLRAYYAN,GKNNRPS,AARDSSGFQVF,41 nM,3 of 3
EGDTLRYYTAN,GKNNRPD,SSRDSSGFQVF,460 nM,3 of 3
EGDSLRYYYAN,GKNNRPK,SSRDSSGIQAF,440 nM,3 of 3
EGDSLRYYYAN,GKCNRPS,SSRDWSGFQVV,14 µM,3 of 3
EGRSLRYYYAN,GKNNRPS,YSRDSSGFQVI,400 nM,3 of 3
EGGSLNYYYAN,GQNNRPS,SSRDSSGFQVF,30 nM,3 of 3
EGDSLRYYYAN,GKNNRPS,QSRTSSGFQYF,2.7 µM,1 of 3
EGSSLRKYYAN,GGNNRPS,SSRDSSGFQVF,35 nM,3 of 3
EGDSLRYYYFN,YKNNRPS,SSRDSSGFQVF,no signal,0 of 3
EGDSLRYYYAN,GKQNRPS,SYRDSSGFQVF,190 nM,3 of 3
EADVLTYYYAN,GKNNRPS,SSRDSSGFQVF,no signal,0 of 3
EGYSLRYYYLN,GKNNHPS,SSRDSSGFQVF,280 µM,2 of 3
IGDSLRRYYLN,GKNNRPS,SSRDSSGFQVF,no signal,0 of 3
EGLSIRYYYAP,GKNNRPS,SSRDSSGFQVF,17 µM,3 of 3
EGDKLRYYYVN,GKNNRPS,SSRDSSGFQKF,no signal,0 of 3
EGDSLRSYYAN,GKSNRGS,SSRDSSGFQVF,86 nM,3 of 3
EGDSLRYYYAN,GKNDRPY,SVRDSSGFQVF,140 nM,3 of 3
EGDSLRYYYAN,GVNTRPS,SSRDSSGFQYF,4.5 µM,2 of 3
EYQSLRYYYAN,GKYNRPS,SSRDSSGFQVF,930 nM,2 of 3
HGDSNRYYYAN,GKNNRPS,SSADSSGFQVF,1.5 µM,2 of 3
EGNSLRYVYAN,GKNNRSS,SSRDSSGFQVF,55 nM,3 of 3
SGDSLRYYYAN,TTNNRPS,SSRDSSGFQVF,1.6 µM,3 of 3
EGDSLRYYQAN,GKNNRPS,SSRDSSGPQVS,3.8 µM,3 of 3
WGYSLRYYYAN,GKNNRPS,SSRDSSGFDVF,15 µM,1 of 3
EGDSLRYYYAN,GKNNRPV,SSRDSIGFQVF,1.3 µM,2 of 3
EGDSLRYYYAE,GKNTRPS,SSRDPSGFQVF,5.3 µM,3 of 3
EGDSLRYYYAN,GDNNRPS,SHRDSSGSQVF,37 nM,3 of 3
EGDFLRVYYAN,MKNNRPS,SSRDSSGFQVF,no signal,0 of 3
EGDFLRYYYMN,GKNNRPS,SSRDSSGFCVF,1.6 µM,3 of 3
EGDSLRGYYAN,IKNNRPS,SSRDSSEFQVF,no signal,0 of 3
EGDSLRYQNAN,GKVNRPS,SSRDSSGFQVF,20 nM,3 of 3
EGDSLRYIYAN,GKNNRPH,SSRDQSGFQVF,120 nM,3 of 3
VGDSLRYYYVN,GKNNRQS,SSRDSSGFQVF,6.9 µM,3 of 3
EGDSLRLYYAN,GKINRPS,SSRDSSGFQEF,no signal,0 of 3
EGDSLRRYYAN,GKNNRPS,LSRDSEGFQVF,460 µM,1 of 3
EGKSLRYYYAN,GKNNRPS,SSRLSSGFQVF,2.9 µM,2 of 3
EGSSLRYPYAN,HKNNRPS,SSRDSSGFQVF,2.2 µM,3 of 3
FGDSNRYYYAN,GKQNRPS,SSRDSSGFQVF,no signal,0 of 3
EGDSLRYYYAN,GKNNRPS,SMRDSSGFKVY,76 µM,2 of 3
EGDSLRYYHAN,GKNNRPS,SSCDSSGCQVF,900 nM,3 of 3
GGDSLRYYYAN,GKNNRPS,SSRWSSGFQVF,3.9 µM,3 of 3
EGDSLIYYYAN,GKNIRPS,SSRDSSGCQVF,16 µM,3 of 3
EGDSLRYYYAN,GKNNRPS,WSRDSSGFQVA,2.2 µM,1 of 3
EGDSLRYYYRC,GKNNRPS,SSRRSSGFQVF,6.1 µM,2 of 3
EGDSLRTYYAN,GKNNAPS,SSRDSSGFQVF,590 nM,3 of 3
EGYSLRYYYAN,GKNNRPS,SFRDSSGFQYF,120 nM,3 of 3
EGDSLRYYYAN,NKNNRGS,SSRDYSGFQVF,990 nM,3 of 3
EGDSLRYYYAN,GWNNRPM,SSRDSSGFQRF,4.7 µM,2 of 3
EGDSLRYCYAN,GKNNRPS,SSRDSSGFQVI,750 nM,3 of 3
RGDSLRQYYAN,GKDNRPS,SSRDSSGFQVF,38 nM,3 of 3
EGDSLRYYYAN,GYNNRES,SSRDSSGDQVF,22 µM,2 of 3
EGDSLRYYYAN,GKNNRPS,SSRDSSEFNVQ,9.9 µM,2 of 3
EGDSLRYYYAN,GKANRYS,SSRDSSGFQVF,1.6 µM,3 of 3
EGDSLRYYYAN,YKNNRPS,SSPDSSGFQVF,39 µM,2 of 3
EGDSNRYYYAN,GKNERPS,SSRDSSGQQVF,130 nM,3 of 3
EGDPLRYYYAN,YKNNRPS,SSRDSSGFEVF,2.3 µM,2 of 3
EKDSLRYRYAN,GKNNRPS,SSTDSSGFQVF,52 µM,1 of 3
RGDSLRYYYAN,GKNWRPS,SSRDSFGFQVF,26 µM,3 of 3
EGDSLRYKYAN,GKDNVPS,SSRDSSGFQVF,70 nM,3 of 3
EGDSLRYYYAN,GKNNNPS,SSRDPGGFQVF,2.1 µM,1 of 3
EGDSLRQYYAN,GKNNRPS,SSCCSSGFQVF,4.5 µM,2 of 3
EGDSLIYYYAN,GKNNRGS,SSRDISGFQVF,12 µM,3 of 3

The opening 12 entries, copied out:

CDR-L1,CDR-L2,CDR-L3,apparent Kd,replicates with signal
EGDRLRYYYAN,GKNNRPS,SARDSSGMQVF,10 µM,3 of 3
WGDSLRYYYAN,GKNNRPS,SSRDSSGIQIF,950 nM,3 of 3
EGDSLRYAYAN,GKHTRPS,SSRDSSGFQVF,25 nM,3 of 3
EGDSLRYYYAN,GKNNRPC,SSRDSGGRQVF,1.0 µM,3 of 3
EGDSLRYYRAN,GPNNRPS,SSRDSSGFQVF,37 nM,3 of 3
ESDSLRTYYAN,GNNNRPS,SSRDSSGFQVF,270 nM,3 of 3
EGDSLRYYYAN,GKWDRPS,SSRDSSMFQVF,no signal,0 of 3
EGDSLRNYYAN,GKNYRPS,SSRDSSCFQVF,4.2 µM,1 of 3
LGDSLRYYYAN,GKNNMPS,SSRDSWGFQVF,130 µM,3 of 3
EGDSLRYYYAN,GKNIRPS,SARDSSGFYVF,no signal,0 of 3
EGDSLRYYYAN,GKNNRPS,GSRDSSGKYVF,23 µM,3 of 3
EWDSLRYYYNN,PKNNRPS,SSRDSSGFQVF,6.4 µM,1 of 3

Data: MIT Lincoln Laboratory AlphaSeq set, Engelhart et al. 2022, doi:10.1038/s41597-022-01779-4, as distributed in FLAb.